Reference: patent US9410137B2, “Compositions and methods for modulating hemostasis” (The Children's Hospital of Philadelphia, priority 2005, dated 2016)

Columns and labels:
[1] = Inhibition of FXa and prothrombinase by Pefabloc tPa/Xa; type: biochemical; conditions: read-out: Ki ± SD Pefabloc tPa/Xa
Source text: (§1) Enzyme concentrations will be determined by active-site titration with ρ-nitrophenyl ρ-guanidinobenzoate (IIa) or fluorescein mono-ρ-guanidinobenzoate (FXa) (26, 27). FXa chromogenic substrate activity, in the presence or absence of various inhibitors, will be measured from initial rates of hydrolysis of Spectrozyme FXa, S-2222, or S-2765 as previously described (14). Kinetic parameters will be determined by least-squares fitting of the initial rate data to appropriate equations.

[2] = FXa chromogenic activity of rFX variants after activation with TF-FVIIa; type: biochemical
Protocol: (§2) The FX mutants were generated using the Quick-change site-directed mutagenesis kit (Stratagene) and the entire FX cDNA was sequenced to verify the identity of the product. The various plasmids were transiently transfected into HEK 293 cells using Lipofectamine-2000. 48 hr post-transfection, media was collected and FX antigen levels were determine using a FX-specific ELISA and FXa activity was assessed by chromogenic assay prior to activation by RVV-X or by tissue factor-FVIIa.

[3] = Inhibition of FXa and prothrombinase by para-amino benzamidine; type: biochemical; conditions: read-out: Ki ± SD Para-amino benzamidine
Source text: as §1

[4] = test system: hemophilia B mice (C57BL/6); assay: Correction of the aPTT in hemophilia B mice; type: in vivo; conditions: 200 μg/kg via tail vein; 5 and 30 min post-injection
Protocol: FIG. 7. Correction of the aPTT. Factor Xa-116L (200 μg/kg; n=7 mice) or PBS (n=4 mice) were injected into hemophilia B mice (C57BL/6) via the tail vein. At 5 and 30 min post-injection, blood was collected and an aPTT assay was performed. The red dotted line represents the aPTT value of normal C57B1/6 animals.
We next evaluated the ability of zymogen-like FXaI16L (FXaI235L) to modulate hemostasis in a murine model of hemophilia (Schlachterman, et. al., 2005, J. Thromb. Haemost., 3, 2730-2737). The aPTT value of hemophilia B mice (C57BL/6) is approximately 50-55 sec. Factor XaI16L (200 μg/kg; n=7) or PBS (n=4) were injected via the tail vein of hemophilia B mice. At selected time points (5 and 30 min) blood was collected and an aPTT was performed on all samples. […] Infusion of PBS had only a marginal effect.

hemophilia B plasma = assay: Half-life of FXa activity in hemophilia B plasma (aPTT-based assay); type: in vitro ADME; conditions: 2 nM
Protocol: FIG. 6. Factor Xa activity in hemophilia B plasma. Wild-type FXa or FXaI16L (2 nM) were added to hemophilia B plasma and at select time intervals the samples were diluted (0.1 nM) and assayed in an aPTT clotting assay.
Based on the observation that the zymogen-like FXa derivatives have poor reactivity with active-site directed probes and inhibitors in the absence of FVa, but apparently near normal activity when the variants are assembled in prothrombinase, we next evaluated the activity of FXaI16L (FXaI235L) in a plasma environment. Hemophilic A (data not shown) or B plasma was spiked with wild-type FXa to correct the clotting time (aPTT) of these plasmas; 0.1 nM wtFXa gave a clotting time of ˜32 sec. […] Next we monitored the half-life of wild-type FXa and FXaI16L (FXaI235L) in hemophilia B plasma. The proteins were added to HB plasma and at different time points, an aliquot of the mixture was withdrawn and assayed in an aPTT-based assay. […] Similar results were found with hemophilia A plasma.

[5] = FXa chromogenic activity of rFX variants after activation with RVV-X; type: biochemical
Protocol: as §2

FVa = target: T1, FVa (Homo sapiens, UniProt P12259); assay: Equilibrium binding for prothrombinase assembly (displacement of fluorescent inactive wtFXa from FVa-membranes); conditions: FVa-membranes, competition with fluorescent inactive wtFXa
T1 sequence (P12259 29-737 limits assumed): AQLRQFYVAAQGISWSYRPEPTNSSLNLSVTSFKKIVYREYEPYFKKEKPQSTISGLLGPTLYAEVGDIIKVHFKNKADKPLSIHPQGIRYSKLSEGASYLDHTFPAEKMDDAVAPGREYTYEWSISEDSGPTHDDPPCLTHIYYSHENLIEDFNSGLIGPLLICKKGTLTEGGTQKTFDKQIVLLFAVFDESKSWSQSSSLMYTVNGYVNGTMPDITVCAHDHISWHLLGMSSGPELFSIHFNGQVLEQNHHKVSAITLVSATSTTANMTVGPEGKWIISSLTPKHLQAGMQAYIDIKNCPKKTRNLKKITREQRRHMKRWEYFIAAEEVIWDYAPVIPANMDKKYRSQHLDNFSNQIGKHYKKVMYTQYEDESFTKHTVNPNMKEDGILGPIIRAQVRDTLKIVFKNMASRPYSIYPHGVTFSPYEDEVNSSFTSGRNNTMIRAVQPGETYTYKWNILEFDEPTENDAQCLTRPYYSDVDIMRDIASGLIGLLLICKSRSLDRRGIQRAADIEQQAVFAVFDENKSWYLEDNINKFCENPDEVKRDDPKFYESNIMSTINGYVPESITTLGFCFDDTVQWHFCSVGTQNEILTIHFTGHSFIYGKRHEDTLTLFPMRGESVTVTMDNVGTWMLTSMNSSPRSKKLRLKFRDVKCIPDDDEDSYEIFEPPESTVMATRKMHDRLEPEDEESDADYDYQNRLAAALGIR
T1 sequence (P12259 1574-2224 limits assumed): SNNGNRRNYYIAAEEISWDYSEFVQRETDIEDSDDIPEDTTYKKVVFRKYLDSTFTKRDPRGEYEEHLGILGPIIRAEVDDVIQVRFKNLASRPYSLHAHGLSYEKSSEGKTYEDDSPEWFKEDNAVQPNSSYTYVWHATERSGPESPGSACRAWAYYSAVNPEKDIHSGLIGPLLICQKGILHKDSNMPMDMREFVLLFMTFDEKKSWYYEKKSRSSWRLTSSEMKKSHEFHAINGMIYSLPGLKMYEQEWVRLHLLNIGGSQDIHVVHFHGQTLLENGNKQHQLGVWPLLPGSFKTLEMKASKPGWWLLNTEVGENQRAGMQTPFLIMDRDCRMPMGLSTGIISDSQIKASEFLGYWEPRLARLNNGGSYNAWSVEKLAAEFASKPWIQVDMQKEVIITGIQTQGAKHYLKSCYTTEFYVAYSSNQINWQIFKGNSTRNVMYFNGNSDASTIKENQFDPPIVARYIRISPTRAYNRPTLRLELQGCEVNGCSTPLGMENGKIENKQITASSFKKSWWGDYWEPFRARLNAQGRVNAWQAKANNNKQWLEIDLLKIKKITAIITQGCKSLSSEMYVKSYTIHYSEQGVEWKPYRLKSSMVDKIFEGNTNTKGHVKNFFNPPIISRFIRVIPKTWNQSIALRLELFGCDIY

Substance: rFXa^I16L: factor X/Xa variant, Ile16 (position 235 in SEQ ID NO: 1) replaced by Leu
- Ki ([1]; Prothrombinase): 0.209 ± 0.005 µM
- Ki ([1]; free Factor Xa): 1.7 ± 0.065 µM
- FXa Activity ([2]; activation of FX with TF-FVIIa, compared to FXa standard curve): 0.572 nM
- % wt (FXa activity) ([2]; activation with TF-FVIIa, adjusted for antigen levels): 6.57%
- Ki ([3]; Prothrombinase): 143 ± 9 µM
- Ki ([3]; free Factor Xa): 726 ± 40 µM
- correction of the aPTT [4]: complete correction of the aPTT to levels seen in normal animals
- estimated half-life (hemophilia B plasma): > 2 h
- FXa Activity ([5]; activation of FX with RVV-X, compared to FXa standard curve): 0.25 nM
- % wt (FXa activity) ([5]; activation with RVV-X, adjusted for antigen levels): 5.00%
- affinity for FVa (FVa): significantly reduced compared to FXaS195A
